This note sets out measurements from PubChem BioAssay AID1645854 (Buhrlage Lab, Dana-Farber Cancer Institute and Novartis …, 2021).

By UniProt entry, the sequences of proteins in these tests, tags left out.
UniProt Q93009, whole entry: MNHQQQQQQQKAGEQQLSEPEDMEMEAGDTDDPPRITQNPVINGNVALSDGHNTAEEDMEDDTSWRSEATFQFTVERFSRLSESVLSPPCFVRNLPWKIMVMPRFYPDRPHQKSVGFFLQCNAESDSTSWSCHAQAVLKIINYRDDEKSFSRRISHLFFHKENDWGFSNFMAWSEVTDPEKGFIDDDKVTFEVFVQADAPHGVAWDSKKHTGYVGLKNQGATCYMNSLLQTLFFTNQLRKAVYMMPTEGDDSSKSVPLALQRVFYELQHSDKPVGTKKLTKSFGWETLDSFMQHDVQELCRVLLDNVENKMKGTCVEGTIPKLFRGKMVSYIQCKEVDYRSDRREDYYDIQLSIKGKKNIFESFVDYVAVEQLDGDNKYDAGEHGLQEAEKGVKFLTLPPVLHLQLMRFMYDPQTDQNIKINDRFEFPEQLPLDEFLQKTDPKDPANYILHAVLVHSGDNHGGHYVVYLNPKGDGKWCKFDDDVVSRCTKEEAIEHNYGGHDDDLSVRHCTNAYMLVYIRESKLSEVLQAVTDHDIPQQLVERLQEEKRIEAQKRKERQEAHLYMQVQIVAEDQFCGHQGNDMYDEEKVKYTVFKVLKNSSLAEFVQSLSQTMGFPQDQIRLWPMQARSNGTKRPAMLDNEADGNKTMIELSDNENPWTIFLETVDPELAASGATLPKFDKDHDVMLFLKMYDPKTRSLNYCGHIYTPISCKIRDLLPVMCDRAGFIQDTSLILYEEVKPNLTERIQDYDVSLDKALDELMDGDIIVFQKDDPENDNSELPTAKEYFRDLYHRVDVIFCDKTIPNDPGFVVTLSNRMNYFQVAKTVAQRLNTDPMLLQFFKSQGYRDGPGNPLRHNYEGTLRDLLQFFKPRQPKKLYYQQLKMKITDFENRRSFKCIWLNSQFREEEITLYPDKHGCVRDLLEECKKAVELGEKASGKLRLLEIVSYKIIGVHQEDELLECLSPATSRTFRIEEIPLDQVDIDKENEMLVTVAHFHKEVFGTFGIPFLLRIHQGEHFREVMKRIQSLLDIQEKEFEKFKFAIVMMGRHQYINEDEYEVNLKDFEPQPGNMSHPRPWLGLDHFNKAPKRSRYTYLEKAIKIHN

This is a selection; strong and weak results do not stand in their true shares. Some tests of the compounds listed are not included; inactive here does not mean inactive elsewhere. Active and inactive are the calls of the source. Cut-off read from the data, not from the text of the source: active = inhibition above about 30%; inactive = the rest.

The target in the assay is Ubiquitin carboxyl-terminal hydrolase 7 (Homo sapiens) (UniProt Q93009). Kind of assay: blocks human USP7 ubiquitin-rhodamine cleavage (AID 1645854). As to conditions: purified USP7, Ub-rhodamine cleavage fluorescence; at 20 µM; hits give high values.
For `O=C(NCC1(N2CCCCC2)CCCCC1)c1ccc2c(c1)OCCO2`, the inhibition is inactive: 5.98%.

Regarding `COc1ccc(C(=O)NCC2(N3CCOCC3)CCCCC2)cc1`, the inhibition was inactive: -0.0416%.

In the case of `COc1cccc(C(=O)NCC2(N3CCCCC3)CCCCC2)c1`, the inhibition was inactive: -6.63%.

Turning to `Cc1c(C(=O)NCC2(N(C)C)CCCCC2)oc2ccc(F)cc12`, the inhibition is inactive: 0.771%.

Take `Cc1c(C(=O)NCC2(N(C)C)CCCCC2)oc2ccccc12`: the inhibition is inactive: 0.628%.

In the case of `O=C(NCC1(N2CCOCC2)CCCCC1)c1ccccc1F`, the inhibition was inactive: -1.3%.

On to `O=C(NCC1(N2CCCCC2)CCCCC1)c1ccc2ccccc2c1`, for which the inhibition was inactive: -5.37%.

As a reminder, the inhibition is the change of the read-out against control, counted positive when it falls.
